What was measured:
[1] = molecular target: Serine/threonine-protein kinase mTOR (Homo sapiens) (UniProt P42345); experiment: Inhibition of mTOR (unknown origin) at 1 uM relative to control
[2] = molecular target: Serine/threonine-protein kinase pim-1 (Homo sapiens) (UniProt P11309); experiment: Inhibition of PIM1 (unknown origin) at 1 uM relative to control

Sequences of proteins named here, by UniProt entry; tags and fusion partners are left off.
UniProt P11309, whole entry, looked up: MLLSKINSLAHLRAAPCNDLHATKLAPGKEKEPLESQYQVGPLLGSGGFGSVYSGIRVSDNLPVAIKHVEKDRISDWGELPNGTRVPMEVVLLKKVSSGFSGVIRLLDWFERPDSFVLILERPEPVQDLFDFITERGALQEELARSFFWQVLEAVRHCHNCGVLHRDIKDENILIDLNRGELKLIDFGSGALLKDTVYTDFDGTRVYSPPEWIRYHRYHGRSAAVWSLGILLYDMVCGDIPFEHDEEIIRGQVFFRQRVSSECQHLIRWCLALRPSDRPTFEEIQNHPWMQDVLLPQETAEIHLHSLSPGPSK

CCNc1cc(-c2ccc3c(c2)-c2ccc(O[C@@H](C)C(N)=O)cc2OC3)ncn1
inhibition [1]: 61% | inhibition [2]: 79%
